The source of these data is PubChem BioAssay AID640 (Columbia University Molecular Screening Center, 2007).

Chains of the proteins cited; added tags and fusions are not shown.
UniProt Q9Y2R2, whole entry: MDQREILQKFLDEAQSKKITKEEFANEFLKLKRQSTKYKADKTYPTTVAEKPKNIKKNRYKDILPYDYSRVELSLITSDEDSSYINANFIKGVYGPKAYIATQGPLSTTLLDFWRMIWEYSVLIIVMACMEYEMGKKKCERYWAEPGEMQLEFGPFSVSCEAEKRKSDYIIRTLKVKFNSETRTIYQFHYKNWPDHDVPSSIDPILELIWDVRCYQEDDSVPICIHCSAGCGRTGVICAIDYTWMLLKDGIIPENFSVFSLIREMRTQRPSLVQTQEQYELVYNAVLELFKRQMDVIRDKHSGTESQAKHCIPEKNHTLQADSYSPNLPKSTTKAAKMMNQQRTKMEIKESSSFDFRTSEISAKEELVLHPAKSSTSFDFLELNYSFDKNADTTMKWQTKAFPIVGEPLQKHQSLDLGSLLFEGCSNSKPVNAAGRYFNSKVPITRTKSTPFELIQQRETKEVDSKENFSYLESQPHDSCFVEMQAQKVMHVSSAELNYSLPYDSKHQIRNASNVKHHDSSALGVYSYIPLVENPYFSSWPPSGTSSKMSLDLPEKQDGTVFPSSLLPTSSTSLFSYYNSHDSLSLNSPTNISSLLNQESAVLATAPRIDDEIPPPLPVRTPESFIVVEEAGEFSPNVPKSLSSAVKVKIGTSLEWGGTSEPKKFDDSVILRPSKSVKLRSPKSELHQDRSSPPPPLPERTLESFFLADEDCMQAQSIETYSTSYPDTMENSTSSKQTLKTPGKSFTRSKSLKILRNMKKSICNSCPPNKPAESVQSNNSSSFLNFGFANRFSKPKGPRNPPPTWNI

Each structure is given as a SMILES string. The entries are a selection whose mix differs from that of the whole data set. Some results for these compounds are left out of this collection, so the calls shown say nothing about other tests. Activity calls are given as the source filed them.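 Rule for the calls: active = inhibition at 2 µM at or above a set limit, the screen mean plus 3 SD (cut at about 24% in these data); inactive = the rest.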

The target of the test is Tyrosine-protein phosphatase non-receptor type 22 (Homo sapiens) (UniProt Q9Y2R2). The experiment in a line: blockers of human LYP enzyme activity – biochemical, DiFMUP fluorescence, 2 µM, primary screen (AID 640).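 Note: 0% = DMSO with enzyme and 100% = enzyme fully blocked by orthovanadate.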 The settings on record: recombinant LYP catalytic domain, at 2 µM, active compounds read high.
Consider `CN(C)c1cccc(C(=O)NCC2(N(C)C)CCCCC2)c1`, for which the inhibition is inactive: 0.6%. Then `O=C(OC1CN2CCC1CC2)C(CO)(c1ccccc1)c1ccccc1` (stereo not drawn), with inactive: 4.8%; and `CC(C)N1C(=O)CC2(CCN(CCOC(=O)C(O)(c3ccccc3)c3ccccc3)CC2)C1=O`, with inactive: 5.7%.
